Only a part is listed here, and it is no random draw. Results filed as inconclusive are left out. Active and inactive are the calls of the source. Calls come from the whole dose curve; as a rule, active = well fitted activation curve with a large enough effect; inconclusive = small, poorly fitted or top-dose-only effect, or effect the other way; inactive = flat fitted curve, though single readings scatter.
Molecular target: Pyruvate kinase PKM (Homo sapiens) (UniProt P14618)
Test: Secondary LDH Assay for Activators of Human Pyruvate Kinase M2 isoform: for Probe SAR
Conditions: purified hPK-M2, LDH-coupled NADH fluorescence kinetic
Excerpt: NIH Chemical Genomics Center [NCGC] Matthew G. Vander Heiden, M.D., Ph.D. [Harvard Medical School, 77 Avenue Louis Pasteur, Boston, MA 02115] NCGC Assay Overview: Human pyruvate kinase muscle 2 (hPK-M2)enzyme was supplied as a highly purified (>95% pure) preparation from Harvard Medical School and a secondary assay was used to evaluate compounds. This assay couples the formation of pyruvate from hPK-M2 using lactate dehydrogenase (LDH) and NADH. The depletion of NADH is followed in a fluorescent-based kinetic assay that follows the formation of pyruvate to lactate, as catalyzed LDH (described by Hannaert et al., 2002)1 Pyruvate kinase substrates, PEP and ADP, were present in the assay at 0.1 mM and 4 mM respectively. In this kinetic assay initial rates were determined by following the fluorescence of NADH depletion.
NCGC Assay Protocol Summary: Three uL of substrate mix (final concentration, 50 mM Tris-Cl pH 8.0, 200 mM KCl, 15 mM MgCl2, 0.1 mM PEP, 4.0 mM ADP, and 0.2 mM NADH) was dispensed into black-solid 1536 well plates. 23 nL of compounds were delivered by a pin tool and 1 uL of enzyme mix (final concentrations, 10 nM hPK-M2 and 1 uM of LDH) was added. Plates were immediately placed in ViewLux (Perkin Elmer) and NADH fluorescence was determined at 30 second exposure intervals for between 3 and 6 minutes. […]

Protein sequences, listed by entry. Tags and fused reporters are not part of them.
UniProt P14618, whole entry, looked up: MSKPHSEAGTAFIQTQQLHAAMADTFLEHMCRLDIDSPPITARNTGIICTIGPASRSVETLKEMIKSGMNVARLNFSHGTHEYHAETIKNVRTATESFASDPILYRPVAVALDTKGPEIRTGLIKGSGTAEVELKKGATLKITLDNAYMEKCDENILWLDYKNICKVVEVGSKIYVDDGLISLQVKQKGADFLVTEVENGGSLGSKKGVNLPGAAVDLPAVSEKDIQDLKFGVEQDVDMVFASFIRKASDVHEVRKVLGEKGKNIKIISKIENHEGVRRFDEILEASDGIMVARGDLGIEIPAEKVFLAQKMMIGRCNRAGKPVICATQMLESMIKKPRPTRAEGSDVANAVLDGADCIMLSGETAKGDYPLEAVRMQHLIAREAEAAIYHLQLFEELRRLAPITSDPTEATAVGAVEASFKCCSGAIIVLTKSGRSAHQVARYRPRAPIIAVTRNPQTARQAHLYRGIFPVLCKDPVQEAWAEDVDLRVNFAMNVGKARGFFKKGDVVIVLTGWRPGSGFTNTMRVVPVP

Structure (SMILES) | Potency
Nc1cccc(S(=O)(=O)N2CCCN(S(=O)(=O)c3ccc4c(c3)OCCO4)CC2)c1 | active: 91.9 nM

Reference: PubChem BioAssay AID2576 (National Center for Advancing Translational Sciences (NCATS), 2010)
